Values quoted from earlier work in patent US10226476B2, “Method of attenuating reactions to skin irritants” (Dana-Farber Cancer Institute, Inc., priority 2001, dated 2019).

System: CD1d
Conditions: comparison with α-ManCer, from reference (22); cited from earlier work

1,2-Dipalmitoyl-sn-Glycero-3-Phosphoethanolamine-N-[Poly(ethylene glycol) 2000] [DPPE-PEG]
solubility and competition of α-GalCer presentation relative to α-ManCer: significantly more soluble and effective competitor of α-GalCer presentation than α-ManCer
